Earlier results, collected in patent publication US10633374B2, “Small molecule based antibody-recruiting compounds for cancer treatment” (YALE UNIVERSITY, priority 2015, dated 2020).

The chains behind the UniProt entries cited, without tags or fusion partners. Residues count along the entry.
UniProt Q03405, 23-305 limits assumed: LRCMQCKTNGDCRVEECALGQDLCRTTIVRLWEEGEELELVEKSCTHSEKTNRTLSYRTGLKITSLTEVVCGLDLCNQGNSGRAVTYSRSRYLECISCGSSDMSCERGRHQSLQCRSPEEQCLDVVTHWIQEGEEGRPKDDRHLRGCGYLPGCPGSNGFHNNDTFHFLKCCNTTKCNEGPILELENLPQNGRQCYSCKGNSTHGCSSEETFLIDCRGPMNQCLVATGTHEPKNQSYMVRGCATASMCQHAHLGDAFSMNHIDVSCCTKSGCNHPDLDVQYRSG

Target: uPAR (Homo sapiens, UniProt Q03405)
Settings: in vitro; cited from earlier work

## O=C(O)c1cccc(Nc2cc(N3CCCCCC3)c3noc4c3c2C(=O)c2ccccc2-4)c1
  affinity for uPAR (literature): triple digit nM affinity
